Source: patent US11352392B2, “Artificially synthesized peptide H-473 and use thereof” (CHINA WEST NORMAL UNIVERSITY, priority 2018, dated 2022)

What was measured:
MGC-803 xenograft tumors = experiment: Pharmacodynamic experiment on human gastric cancer MGC-803 xenograft tumor in nude mice; format: in vivo, BALB/c nude mice; details: MGC-803 xenograft nude mice, H-473 1 μg/kg or Interleukin-2 200,000 IU/kg, tail vein, once a day for 10 times
Method: (§1) Model control group: physiological saline, 0.1 ml/10 g, once a day for 10 times.
(§2) Interleukin-2: 20,000 IU/ml interleukin-2 solution, injected into tail vein, 0.1 ml/10 g, once a day for 10 times.
Peptide H-473-1μg/kg group: 0.1 μg/ml peptide H-473 solution, injected into the tail vein, 0.1 ml/10 g, once a day for 10 times.
The cultured MGC-803 cell suspension was collected at a concentration of 1×10^7 cells/ml and inoculated subcutaneously in the right axilla of nude mice, 0.1 ml/mouse.
Diameters of the xenograft tumors in nude mice were measured with a vernier caliper. 8 days after inoculation, the animals were randomized into groups with 8 in each group when the tumors grew to 100-150 mm^3. At the same time, each group of nude mice began to be dosed. The dosage regimen can be found in “Groups and dosage regimen”. The anti-tumor effect of the test sample was dynamically observed by using a method of measuring tumor diameter. 10 days after dosing, observation was continued for 4 days, and then the nude mice were sacrificed, and tumor mass was surgically removed and weighed.
(§3) Tumor volume (TV) was calculated according to the following formula: TV=½×a×b^2, wherein, a and b represent length and width, respectively.
(§4) Relative tumor volume (RTV) was calculated according to the measured results according to the following formula: RTV=Vt/V0, wherein, V0 is tumor volume measured when the animals are divided into cages and dosed (i.e., d0) and Vt is tumor volume at each measurement.
(§5) Evaluation indicator of anti-tumor activity: relative tumor proliferation rate T/C (%) was calculated according to the following formula: […]
(§6) Evaluation indicator of antitumor activity: tumor growth inhibition rate (%) was calculated according to the following formula: […]
Mean values were expressed as X±SD, inter-group analysis was statistically processed using t-test, and results were statistically analyzed using SPSS (Staffstical Package for the Social Science) 17.0.

cfpac-1 xenograft tumors = experiment: Pharmacodynamic experiment on cfpac-1 xenograft tumor in nude mice; format: in vivo, BALB/c nude mice; details: cfpac-1 xenograft nude mice, H-473 1 μg/kg or Interleukin-2 200,000 IU/kg, tail vein, once a day for 10 times
Method: as §1, §2
Peptide H-473-1 μg/kg group: 0.1 μg/ml peptide H-473 solution, injected into the tail vein, 0.1 ml/10 g, once a day for 10 times.
The cultured cfpac-1 cell suspension was collected at a concentration of 1×10^7 cells/ml and inoculated subcutaneously in the right axilla of nude mice, 0.1 ml/mouse.
Diameters of the xenograft tumors in nude mice were measured with a vernier caliper. 17 days after inoculation, the animals were randomized into groups with 8 in each group when the tumors grew to 100-150 mm^3. […]
as §3, §4, §5, §6

For Interleukin-2, the Tumor inhibition rate (MGC-803 xenograft tumors) was 60.9%, the Tumor weight (MGC-803 xenograft tumors) was 1.023 ± 0.121 g and the Tumor inhibition rate (MGC-803 xenograft tumors; listed as IL-2) was 60.9%. The Tumor inhibition rate (cfpac-1 xenograft tumors) was 56.1% and the Tumor inhibition rate (cfpac-1 xenograft tumors; listed as IL-2) was 68.04%.
